# According to patent publication US20060067959A1, “Compositions and methods for treatment of solar damage” (priority 2004, published 2006):
# System: NIH 3T3 cells
# Method: NIH 3T3 cells were used in these studies. Cells were cultured in 24-well plates at a density of […] in 10% FBS/DMEM overnight. […] Cells were incubated for 72 hours before cell counting and morphological studies.
substance,measurement,value
proanthocyanidin,cytotoxicity (FIG. 1 legend),lack of cytotoxicity
same,toxicity relative to glutaraldehyde (less toxic),about 120 times
